The record followed here is BindingDB's records for PubMed 2885406 (University of California, 1987).

Amino acid sequences for entries named in this document (tags omitted).
UniProt P22086, whole entry: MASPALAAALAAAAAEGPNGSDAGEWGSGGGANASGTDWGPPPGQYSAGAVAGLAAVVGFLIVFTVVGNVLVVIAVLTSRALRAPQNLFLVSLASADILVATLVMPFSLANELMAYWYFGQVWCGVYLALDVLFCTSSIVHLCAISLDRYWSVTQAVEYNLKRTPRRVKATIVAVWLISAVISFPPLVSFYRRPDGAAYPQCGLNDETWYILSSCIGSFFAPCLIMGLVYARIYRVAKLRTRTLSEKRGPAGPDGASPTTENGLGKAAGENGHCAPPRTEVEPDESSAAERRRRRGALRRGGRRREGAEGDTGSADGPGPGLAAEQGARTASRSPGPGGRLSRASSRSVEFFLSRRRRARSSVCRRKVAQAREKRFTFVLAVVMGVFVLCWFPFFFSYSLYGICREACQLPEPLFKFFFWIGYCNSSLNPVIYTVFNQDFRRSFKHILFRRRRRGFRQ

For this assay, the target named is Alpha-2C adrenergic receptor (Rattus norvegicus, UniProt P22086).

Each structure is given as a SMILES string. “And” between values parts separate entries of the source, which are not always exact repeats. Equal entries are not always repeated.

Usually Ki stands for a measure of affinity in units of concentration, obtained from inhibition or displacement. Low values mean tighter binding, high ones weaker binding. For `CNCC(O)c1ccc(O)c(O)c1` (stereo unspecified) [EPINEPHRINE], the Ki is 3300 nM and 1360 nM.
